The text below walks through data of ChEMBL document CHEMBL1129738, “3-Aryl-1,2-diacetamidopropane derivatives as novel and potent NK-1 receptor antagonists” (J Med Chem, 1996).

Amino acid sequences for entries named in this document (tags omitted).
UniProt P79218, whole entry: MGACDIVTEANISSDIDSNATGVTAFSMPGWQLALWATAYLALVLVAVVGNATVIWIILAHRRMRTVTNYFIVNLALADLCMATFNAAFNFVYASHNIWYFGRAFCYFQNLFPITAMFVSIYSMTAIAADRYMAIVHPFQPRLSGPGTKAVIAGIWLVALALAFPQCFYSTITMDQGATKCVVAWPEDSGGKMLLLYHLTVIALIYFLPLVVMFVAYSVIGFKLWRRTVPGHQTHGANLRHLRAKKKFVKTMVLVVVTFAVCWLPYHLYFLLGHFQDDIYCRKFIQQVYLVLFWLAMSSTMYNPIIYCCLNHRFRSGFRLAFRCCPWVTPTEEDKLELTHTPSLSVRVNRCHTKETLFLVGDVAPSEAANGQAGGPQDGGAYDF
UniProt P16177, whole entry: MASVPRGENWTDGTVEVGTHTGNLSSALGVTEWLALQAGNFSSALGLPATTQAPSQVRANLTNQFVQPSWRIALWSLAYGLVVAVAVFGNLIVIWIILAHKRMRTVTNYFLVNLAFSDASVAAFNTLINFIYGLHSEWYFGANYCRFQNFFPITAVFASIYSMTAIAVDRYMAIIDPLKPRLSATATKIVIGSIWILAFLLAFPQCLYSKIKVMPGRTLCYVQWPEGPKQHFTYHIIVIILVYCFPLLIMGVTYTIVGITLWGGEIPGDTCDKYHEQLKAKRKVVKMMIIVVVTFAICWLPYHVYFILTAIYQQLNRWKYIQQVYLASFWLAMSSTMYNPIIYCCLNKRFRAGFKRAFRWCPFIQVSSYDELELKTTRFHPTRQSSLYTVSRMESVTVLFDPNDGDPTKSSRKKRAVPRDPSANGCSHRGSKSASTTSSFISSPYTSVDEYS

The target of assay [1] is Substance-K receptor (Oryctolagus cuniculus) (UniProt P79218).
Assay [2] has as its target Neuromedin-K receptor (Rattus norvegicus) (UniProt P16177).

Active and inactive are the calls of the source. No cut-off for these calls is given here.

As to `COc1ccccc1CN(C[C@@H](Cc1c[nH]c2ccccc12)NC(=O)CN1CCN(c2ccccc2)CC1)C(C)=O`, the pA2 result in assay [1] and in assay [2] was “inactive” throughout.

With `COc1ccccc1CN(C[C@H](Cc1c[nH]c2ccccc12)NC(=O)CN1CCN(c2ccccc2)CC1)C(C)=O`, in assay [2], the pA2 result is “inactive”.
